System: Paddy rice (variety: Nipponbare)
Experiment: Test Example 5: pot test, growth inhibition of the paddy rice
Assay type: in vivo
Settings: 20 days after sowing, dosage a.i. g per 1 kg of seeds: Sulcotrione 1.0, Imazosulfuron 1.0, Oxadiargyl 0.15

Substance: oxadiargyl
- Growth inhibition rate, Paddy rice (Sowing into soil (depth 1 cm)): 9 (Growth inhibition rate of 82 to 90%)
- Growth inhibition rate, Paddy rice (Surface sowing): 7 (Growth inhibition rate of 64 to 72%)
